Test results: patent US20240229101A1, “METHOD FOR DETECTING INTRACELLULAR ACTIVITY OF CYP ENZYMES” (NATIONAL INSTITUTE OF ADVANCED INDUSTRIAL SCIENCE AND …, priority 2021, published 2024)

Test system: CYP enzyme group
Assay: Raman observation of HepaRG hepatocytes, signal of oxidized CYP enzyme group (1370, 1636 cm^-1)
Assay type: cell-based, human

Raman signal intensity at a wavenumber of 1636 cm^-1 with increasing concentration (HepaRG hepatocytes, 0, 0.04, 0.4, 4 μM, 48 hr (FIG. 14)): increased
Raman signals at wavenumbers of 1370 and 1636 cm^-1 (HepaRG hepatocytes, 4 μM, 48 hr, compared with non-induced cell group (FIG. 6)): increased
median value of per-cell Raman signal at 1636 cm^-1 with dosage concentration (HepaRG, 0, 0.04, 0.4, 4 μM, statistically significant (FIG. 15)): increased
Raman signal at a wavenumber of 1636 cm^-1 derived from the CYP enzyme group (HepaRG, 4 μM from Day 6, measured on Day 8 (FIG. 25)): increases
SMILES: CO[C@H]1/C=C/O[C@@]2(C)Oc3c(C)c(O)c4c(O)c(c(/C=N/N5CCN(C)CC5)c(O)c4c3C2=O)NC(=O)/C(C)=C\C=C\[C@H](C)[C@H](O)[C@@H](C)[C@@H](O)[C@@H](C)[C@H](OC(C)=O)[C@@H]1C [Rifampicin]
